This experiment has as its system ion channels associated with glutamate receptors. Kind of experiment: Glutamate-induced uptake of 45Ca into rat brain synaptosomes (calcium-blocking properties). The settings on record: glutamate-induced 45Ca uptake, K(43/21); compound 5 μM; 5 min at 30° C. The format is biochemical. On the procedure: Evaluation of the calcium-blocking properties of the compounds was conducted with P2-fraction of synaptosomes, which were isolated from the brain of newborn (8-11 days) rats according to the protocol described in [Bachurin et al. Neuroprotective and cognition enhancing properties of MK-801 flexible analogs. Structure-activity relationships.//Ann. N.Y. Acad. Sci., 2001, v. 939, pp. 219-235]. In this test, the ability of the compounds to inhibit a specific uptake of calcium ions via ion channels associated with glutamate receptors was determined.
Synaptosomes were placed into the incubation buffer A (132 mM NaCl, 5 mM KCl, 5 mM HEPES) and were kept at 0° C. during the entire experiment. Aliquots of synaptosomes (50 μl) were placed in the media A, containing investigated compounds and a preparation of the radiolabeled calcium, ^45Ca. The calcium uptake was stimulated by the introduction into the media of the 20 μl of the 10 mM solution of glutamate. After a 5 min incubation at 30° C. the reaction was interrupted by a filtration through GF/B filters, which were then triple washed with the cold buffer B (145 mM KCl, 10 mM tris, 5 mM trilon B). Then, filters were subjects for the detection of the radiolabeled calcium. The measurement was conducted using a scintillation counter ‘SL-4000 Intertechnic”. […] A specific calcium uptake was calculated using the following equation […]

We go through one compound from patent publication US20080234310A1, “Methods and Compositions for Slowing Aging” (priority 2003, published 2008).

SMILES strings stand for the structures.

In the case of `Cc1ccc2c(c1)[C@H]1CN(C)CC[C@H]1N2.Cl.Cl` (racemic) [Compound 1, cis-(±)-2,8-dimethyl-2,3,4,4a,5,9b-hexahydro-1H-pyrido(4,3-b)indol dihydrochloride], the “% Ca to control” value was 40.5 ± 1.0%.
